Laboratory results reported in US20050192547A1, “Combinations of antiseptic and antibiotic agents containing medical devices” (priority 2002, published 2005).
Like-named read-outs stand apart in the source and are kept apart here.

System: Pseudomonas aeruginosa

Compound: O=[N+]([O-])[O-].O=[N+]([O-])[O-].O=[N+]([O-])[O-].[Bi+3] [Bismuth Nitrate, bismuth nitrate]
- Zones of Inhibition Against Pseudomonas aeruginosa (catheter treated with 2% Bismuth Salt): 0 mm
- Zones of Inhibition Against Pseudomonas aeruginosa (catheter treated with 2% Bismuth Salt + 3% Minocycline): 15 mm
